58 compounds from PubChem BioAssay AID602 (SRMLSC, 2007) can be followed below.

The list shows a part of the results, in another mix than the full data. Active and inactive are the calls of the source.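 The calls were made as follows: active = viability drop by adding the cancer drug above about 55%, with treated viability meeting a 40% cutoff (limit read from the data); inactive = the rest, inconclusive results apart.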

A short description of the assay: MRP1 drug-resistance reversers in H69AR cells – cell-based, doxorubicin co-treatment, primary screen (AID 602).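 Also: viability without doxorubicin minus viability with 2 µM doxorubicin for each compound; larger differential means the compound sensitizes cells more to doxorubicin.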 Particulars: H69AR cells + 2 uM doxorubicin, CellTiter-Glo, 72 h; at 10 µM; stronger effect = higher value. (In general: ATP-based viability assays read luminescence as a measure of living cells.)
For the compound `O=C(OC1CN2CCC1CC2)C12CC3CC(CC(C3)C1)C2` (stereo not drawn), the differential viability (reversal) was inactive: 23.1%.

On to `COc1ccc(OP(C)(=O)Nc2cccc(F)c2)cc1` (stereo not drawn), for which the differential viability (reversal) is inactive: 8.24%.

In the case of `Cc1ccc(NP(C)(=O)Oc2ccccc2)c(C)c1` (stereo not drawn), the differential viability (reversal) was inactive: 19.7%.

Consider `COc1ccccc1OP(C)(=O)Nc1ccc(C)cc1` (stereo not drawn), for which the differential viability (reversal) was inactive: -9.76%.

In the case of `ClCCSc1nnc(-c2cccnc2)o1`, the differential viability (reversal) was inactive: 5.53%.

Turning to `CP(=S)(Nn1cnnc1)Oc1ccccc1` (stereo not drawn), the differential viability (reversal) was inactive: -7.41%.

As to `CP(=O)(Nc1ccccn1)Oc1ccc(Cl)cc1` (stereo not drawn), the differential viability (reversal) was inactive: 3.87%.

For the compound `CCC(C)N(CC(C)C)C(=S)SC(NC(C)=O)C(Cl)(Cl)Cl` (stereo not drawn), the differential viability (reversal) is inactive: -12.2%.

`CCOP(C)(=S)SCC(=O)NC(C)C(=O)O` (stereo not drawn): the differential viability (reversal) is inactive: 6.49%.

With `CP(=O)(NC(=O)Nc1ccccc1)Oc1ccccc1` (stereo not drawn), the differential viability (reversal) was inactive: 3.82%.

Turning to `O=C(COc1ccccc1)OC1CN2CCC1CC2` (stereo not drawn), the differential viability (reversal) is inactive: -3.56%.

As for `COP1(=S)c2c(C)nn(CCC#N)c2N=C(c2ccc(F)cc2)N1C` (stereo not drawn), the differential viability (reversal) was inactive: -20.8%.

For the compound `Cc1nc2ccc3ccccc3c2s1.O=[N+]([O-])c1cc([N+](=O)[O-])c(O)c([N+](=O)[O-])c1`, the differential viability (reversal) is inactive: -5.61%.

On to `CC1(CBr)Cn2c(nc3ccccc3c2=O)S1` (stereo not drawn), for which the differential viability (reversal) is inactive: 6.53%.

On to `Clc1n[nH]nc1-c1nn[nH][15n]1`, for which the differential viability (reversal) was inactive: 4.35%.

On to `O=P1(Nc2ccccn2)COc2ccccc2OC1`, for which the differential viability (reversal) was inactive: -13.7%.

On to `O=P1(Nc2ccc(Br)cn2)COc2ccccc2OC1`, for which the differential viability (reversal) is inactive: 7.27%.

Take `Cc1ccc(OCC(=O)OC2CN3CCC2CC3)cc1` (stereo not drawn): the differential viability (reversal) is inactive: -4.93%.

Turning to `O=P1(Nc2ncccn2)COc2ccccc2OC1`, the differential viability (reversal) is inactive: -10.5%.

As to `COc1ccccc1OP(C)(=O)Nc1c(C)cccc1C` (stereo not drawn), the differential viability (reversal) was inactive: 1.92%.

For the compound `Cc1nn(-c2ccccc2)c2c1P(=O)(N1CCOCC1)N(C)C(c1ccccc1)=N2` (stereo not drawn), the differential viability (reversal) is inactive: 9.41%.

Take `CCOP1(=S)c2c(C)nn(CCC#N)c2N=C(c2ccc(F)cc2)N1C` (stereo not drawn): the differential viability (reversal) was inactive: -0.26%.

Take `CCOP1(=S)c2c(C)nn(CCC#N)c2N=C(c2ccccc2F)N1C` (stereo not drawn): the differential viability (reversal) is inactive: -1.49%.

For the compound `Cc1ccc(C)c(NP(C)(=O)Oc2ccccc2)c1` (stereo not drawn), the differential viability (reversal) was inactive: -5.04%.

In the case of `Cc1cc(C)cc(OP(C)(=O)Nc2ccccn2)c1` (stereo not drawn), the differential viability (reversal) is inactive: -7.48%.

`Cc1cc(C)cc(OP(C)(=O)Nc2ccc(C)cc2C)c1` (stereo not drawn): the differential viability (reversal) is inactive: 12.8%.

`Cc1cccc(OCC(=O)OC2CN3CCC2CC3)c1` (stereo not drawn): the differential viability (reversal) was inactive: 0.07%.

For `CP(=O)(Nc1ccccc1F)Oc1ccccc1` (stereo not drawn), the differential viability (reversal) is inactive: 3.46%.

In the case of `O=P1(Nc2nc3ccc(Cl)cc3s2)COc2ccccc2O1` (stereo not drawn), the differential viability (reversal) is inactive: 12.8%.

As to `CP(=O)(Nc1ccccc1)Oc1ccc(F)cc1` (stereo not drawn), the differential viability (reversal) was inactive: -3.8%.

Regarding `COC(=O)c1cc2c(s1)N=C(c1ccccc1)N(C)P2(=O)N1CCOCC1` (stereo not drawn), the differential viability (reversal) was inactive: -1.67%.

Regarding `CCN(CC)CCCOC(=O)C(O)(c1ccccc1)C1CCCCC1` (stereo not drawn), the differential viability (reversal) is inactive: -12.6%.

For the compound `O=C(OC1CN2CCC1CC2)c1cccc(Cl)c1` (stereo not drawn), the differential viability (reversal) is inactive: -7.38%.

Take `CN(C)CCOC(=O)C(O)(c1ccccc1)C1CCCCC1` (stereo not drawn): the differential viability (reversal) is inactive: 9.91%.

In the case of `Cc1ccccc1NP(C)(=O)Nc1ccccc1C`, the differential viability (reversal) is inactive: -13.5%.

For the compound `CP(=O)(Nc1ccc2c(c1)OCCO2)Oc1ccccc1` (stereo not drawn), the differential viability (reversal) was inactive: 1.42%.

In the case of `c1nnnn1CCn1cnnn1`, the differential viability (reversal) is inactive: -1.27%.

As for `O=P(Nc1nccs1)(c1ccccc1)c1ccccc1`, the differential viability (reversal) was inactive: 0.34%.

For `CC1CCN(C(=O)Oc2c(Cl)cc(Cl)c3cccnc23)CC1`, the differential viability (reversal) is inactive: 23.7%.

In the case of `CC(C)(C)c1ccc(OP(C)(=O)O)cc1`, the differential viability (reversal) is inactive: -2.16%.

Consider `CP(=O)(Nc1ccc(Cl)cc1)Oc1ccc(F)cc1` (stereo not drawn), for which the differential viability (reversal) was inactive: 6.95%.

Take `COc1ccccc1OP(C)(=O)Nc1c(C)n(C)n(-c2ccccc2)c1=O` (stereo not drawn): the differential viability (reversal) is inactive: 5.41%.

On to `O=[N+]([O-])c1cccc2n[nH]nc12`, for which the differential viability (reversal) was inactive: 4.66%.

Consider `CCc1nc2c(n1)c1c(non1O)c1c2no[n+]1[O-]`, for which the differential viability (reversal) is inactive: 1.2%.

On to `CP(=O)(Oc1ccccc1)N1CCOC1=O` (stereo not drawn), for which the differential viability (reversal) is inactive: 6.43%.

Turning to `CP(=O)(OC12CC3CC(CC(C3)C1)C2)OC12CC3CC(CC(C3)C1)C2`, the differential viability (reversal) is inactive: 26.1%.

As for `Cc1nc2ccc3ccccc3c2o1.O=[N+]([O-])c1cc([N+](=O)[O-])c(O)c([N+](=O)[O-])c1`, the differential viability (reversal) was inactive: 7.84%.

For the compound `COc1ccccc1OP(C)(=O)Nc1ccc(C)c(C)c1` (stereo not drawn), the differential viability (reversal) was inactive: 4.8%.

For `CCOP(=O)(Nc1ccccc1)OCC`, the differential viability (reversal) was inactive: -2.08%.

For the compound `COc1ccccc1OP(C)(=O)Nc1ccc(C)cc1C` (stereo not drawn), the differential viability (reversal) was inactive: 3.67%.

Consider `CP(=O)(Nc1ccccn1)Oc1ccccc1` (stereo not drawn), for which the differential viability (reversal) was inactive: -13.3%.

As to `CCc1ccc(OP(C)(=O)O)cc1`, the differential viability (reversal) is inactive: -15.5%.

In the case of `Cc1c(NP(C)(=O)Oc2ccc(C(C)C)cc2)c(=O)n(-c2ccccc2)n1C` (stereo not drawn), the differential viability (reversal) is inactive: -15.9%.

In the case of `Cc1c2non([O-])c-2c(C)[n+](=O)[n+]1[O-]`, the differential viability (reversal) was inactive: -0.33%.

Turning to `Oc1ccccc1CNc1ccccn1`, the differential viability (reversal) was inactive: 1.65%.

With `COc1ccc(OP(C)(=O)Nc2ccccn2)cc1` (stereo not drawn), the differential viability (reversal) is inactive: -6.78%.

For the compound `CN(C)CCOC(=O)C(O)(c1ccccc1)C1CCCC1` (stereo not drawn), the differential viability (reversal) is inactive: 20.5%.

Consider `CN1CCCC(OC(=O)C(c2ccccc2)c2ccccc2)C1` (stereo not drawn), for which the differential viability (reversal) is inactive: -5.9%.
